AlphaSeq binding of Ab-14 heavy chain variants to a spike HR2 peptide

Target: peptide PDVDLGDISGINAS, taken from heptad repeat 2 (HR2) of SARS-CoV-2 spike.

Parent: Ab-14, a human scFv built as VH, a 15-residue (Gly4Ser)3 linker, VL. Only the CDRs of the heavy chain vary.
VH: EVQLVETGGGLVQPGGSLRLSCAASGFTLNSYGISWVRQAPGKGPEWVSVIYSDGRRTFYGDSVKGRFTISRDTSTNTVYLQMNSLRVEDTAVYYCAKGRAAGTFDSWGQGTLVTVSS
VL: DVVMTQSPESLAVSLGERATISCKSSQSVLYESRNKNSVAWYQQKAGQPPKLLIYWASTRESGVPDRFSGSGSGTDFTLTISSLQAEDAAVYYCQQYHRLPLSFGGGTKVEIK

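The variants were designed computationally from a first round of random CDR variants and then made and measured. Group labels follow the data file (Rand: our label for a block that the file lists under HC and that is probably the random mutants of the ten best first-round binders; En: ensemble of fine-tuned language models; HC: hill climbing; Gen: genetic algorithm; Gibbs: Gibbs sampling; a sequence that several methods proposed may carry one label only). In AlphaSeq, yeast of one mating type display the scFv and yeast of the other type display the target. After mating in shaken culture at 30 °C for 16 h, diploids were selected and their barcode pairs sequenced. A regression on co-assayed BCL2-family reference pairs converts the normalised counts of each replicate to an apparent Kd. The assay was run in six technical replicates.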

The parent's heavy chain CDRs are GFTLNSYGIS, VIYSDGRRTFYGDSVK, GRAAGTFDS; each variant's own CDRs replace them letter for letter. Variants here have more than six changes. The read-out is the apparent dissociation constant on a log10 scale (nM): the lower, the stronger. Replicates are averaged; those with no signal do not enter the mean. Where no diploid with the target was found in that replicate, the entry reads "nd": below detection, most likely a poor binder, though not proof of it. Entries are sorted by rising average, undetected variants last. The authors averaged sequences with at least three values out of six and counted those with two or fewer as poor binders. A sequence measured in both rounds can read differently, since the two assays cover different ranges. Three control strains display no target. For all heavy chain designs, 1% of the pairings with them gave a signal, with a median of 2.08 and one signal in twenty below 0.84, so weak values seen in few replicates may be background. The control count says in how many pairings with the empty strains this scFv gave a signal.

The variant GFTLDEYGIS / VIYADGQRTFYADSVK / GNVAGTFDQ [En_HC] gave -0.31, -1.01, -1.32, -1.24, 0.01, -0.88 (mean -0.79; controls 1 of 18). With GFDLNEYGIS / VIYADGVRTFYADSVK / GEVAGTFDL [En_Gen] the result was -0.63, -0.67, -1.33, -0.95, -0.54, -0.62 (mean -0.79; controls 0 of 18). With GFDLNEYGIS / VIYADGMRTFYTDSVK / GEFAGTFDK [En_HC] the result was -0.67, -1.38, -0.25, -0.32, -1.05, -0.98 (mean -0.78; controls 0 of 18). With GFDLNEYGIS / VIYADGMRTYYADSVK / GTNAGTFDI [En_Gen] the result was -0.79, -0.84, -0.65, -1.00, -0.49, -0.77 (mean -0.76; controls 0 of 18). The variant GFDLNEYGIS / VIYADGQRTAYADSVK / GNVAGTFDE [En_Gen] gave -0.49, -0.84, -0.79, -0.73, -0.79, -0.66 (mean -0.72; controls 0 of 18).

The variant GFNLNEYGIS / VIYADGRRTFYADSVK / GQIAGTFDV [En_HC] showed -0.50, -0.95, -0.99, -0.89, -0.58, 0.15 (mean -0.63; controls 0 of 18). With GFDLDEYGIS / VIYADGRRTFYADSVK / GTNAGTFDT [En_HC] the result was -0.45, -0.23, -1.04, -0.75, -0.68, -0.54 (mean -0.62; controls 0 of 18). For GFTINEYGIS / VIYADGNRVEYNDKVK / GMLAGTFDQ [En_Gibbs], the assay gave nd, -1.02, nd, -0.52, -0.26, nd (mean -0.60; controls 0 of 18). For GFDLNEYGIS / VIYADGKRTAYADDVK / GNQAGTFDL [En_Gen], the assay gave -0.40, -0.83, -0.89, -0.36, -0.59, -0.54 (mean -0.60; controls 0 of 18). With GFDLNEYGIS / VIYADGKRTFYADSVK / GHVAGTFVS [En_HC] the result was 0.09, -0.43, -0.72, -0.42, -0.83, -0.44 (mean -0.46; controls 0 of 18).

With GFDLDEYGIS / VIYADGMRTVYTDSVK / GENAGTFDV [En_Gen] the result was 0.35, -0.25, -0.61, -0.79, -0.59, -0.50 (mean -0.40; controls 0 of 18). For GFDLNEYGIS / VIYADGQRTAYADSVK / GKEAGTFDS [En_HC], the assay gave -0.24, -0.42, -0.58, -0.37, -0.40, -0.37 (mean -0.40; controls 0 of 18). The variant GFDLDEYGIS / VIYADGMRTFYADSVK / GQNAGTFDI [En_Gen] showed -0.48, -0.47, -0.24, -0.38, nd, nd (mean -0.39; controls 0 of 18). The variant GFDLNEYGIS / VIYADGQRTAYADSVK / GNVAGTFDI [En_Gen] gave -0.32, -0.32, -0.48, -0.64, -0.18, -0.38 (mean -0.39; controls 0 of 18). The variant GFDLNEYGIS / VIYADGRRTFYADSVK / GSQAGTFDM [En_HC] gave -0.18, -0.23, -0.46, -0.54, -0.39, -0.34 (mean -0.36; controls 0 of 18).

The variant GFNLNEYGIS / VIYADGVRTFYADSVK / GQIAGTFDV [En_HC] showed -0.44, -0.08, -0.73, -0.31, -0.45, 0.00 (mean -0.33; controls 0 of 18). With GFDLNEYGIS / VIYADGRRTFYIDSVK / GEIAGTFNM [En_HC] the result was 0.47, -0.71, -0.67, -0.78, -0.76, 0.66 (mean -0.30; controls 1 of 18). The variant GFDLNEYGIS / VIYADGKRTAYTDSVK / GNNAGTFDI [En_Gen] showed -0.20, -0.38, -0.48, -0.24, -0.26, -0.21 (mean -0.30; controls 0 of 18). The variant GFDLNEYGIS / VIYADGSRTFYADSVK / GNQAGTFDV [En_Gen] gave 0.06, -0.15, -0.65, 0.04, -0.15, -0.46 (mean -0.22; controls 0 of 18). The variant GFDLNEYGIS / VIYADGSRTAYSDSVK / GENAGTFDM [En_Gen] gave -0.17, -0.15, -0.66, -0.49, -0.08, 0.52 (mean -0.17; controls 0 of 18).

With GFDLNEYGIS / VIYADGRRTFYVDSVK / GEEAGTFDQ [En_HC] the result was 0.04, -0.14, -0.10, -0.33, -0.25, -0.12 (mean -0.15; controls 0 of 18). For GFDLNEYGIS / VIYADGSRTVYADSVK / GNVAGTFDQ [En_Gen], the assay gave 0.46, -0.28, -0.38, -0.31, -0.04, -0.15 (mean -0.12; controls 1 of 18). The variant GFNLNEYGIS / VIYADGVRTFYADSVK / GGAAGTFDV [En_HC] showed -0.24, -0.05, -0.14, -0.26, 0.02, 0.02 (mean -0.11; controls 0 of 18). With GFDLDEYGIS / VIYADGQRTAYADSVK / GNVAGTFDL [En_Gen] the result was 0.45, -0.11, -0.36, 0.05, 0.04, -0.33 (mean -0.04; controls 0 of 18). With GFDLNEYGIS / VIYADGRRKFYADKVK / GENAGTFNV [En_HC] the result was 0.67, -0.47, -0.37, -0.24, 0.04, 0.25 (mean -0.02; controls 0 of 18).

For GFDLNEYGIS / VIYADGLRTAYADDVK / GQNAGTFDV [En_Gen], the assay gave -0.37, 0.08, 0.02, -0.11, -0.20, 0.59 (mean 0.00; controls 0 of 18). For GFDLNEYGIS / VIYADGMRTVYTDSVK / GNNAGTFDV [En_Gen], the assay gave -0.05, 0.09, 0.59, -0.01, 0.06, -0.56 (mean 0.02; controls 0 of 18). For GFDLDEYGIS / VIYADGMRTAYSDNVK / GNQAGTFDV [En_Gen], the assay gave 0.11, 0.24, 0.25, 0.05, 0.38, 0.00 (mean 0.17; controls 0 of 18). For GFDLEDYGIS / VIYADGKRTAYADSVK / GEVAGTFDT [En_Gen], the assay gave 0.36, 0.58, -0.34, -0.17, 0.07, 0.69 (mean 0.20; controls 0 of 18). For GFDLNEYGIS / VIYADGMRTAYADSVK / GKAAGTFDS [En_HC], the assay gave 0.91, 0.12, 0.26, 0.44, -0.42, -0.06 (mean 0.21; controls 1 of 18).

The variant GFDLNEYGIS / VIYADGMRTFYSDSVK / GEQAGTFVS [En_HC] gave 0.07, 0.35, 0.26, 0.39, 0.16, 0.34 (mean 0.26; controls 1 of 18). The variant GFDLNEYGIS / VIYADGRRTFYSDSVK / GNNAGTFDQ [En_HC] gave 0.55, -0.13, nd, 0.82, 0.27, -0.20 (mean 0.26; controls 0 of 18). The variant GFDLNEYGIS / VIYADGRRTFYADSVK / GENAGTFFS [En_HC] showed nd, nd, 0.88, nd, nd, -0.09 (mean 0.39; controls 0 of 18). The variant GFDLESYGIS / VIYADGRRTFYADSVK / GENAGTFDI [En_HC] gave 0.15, nd, nd, 0.11, nd, 1.11 (mean 0.45; controls 0 of 18). The variant GFEIEEYGIS / VIYADGVRTMYTDNVK / GDILGLALT [En_Gibbs] showed 1.57, nd, nd, nd, nd, 2.23 (mean 1.90; controls 0 of 18).

The variant GFDLDEYGIS / VIYADGMRTAYADSVK / GENAGTFVV [En_Gen] gave nd, 1.94, nd, nd, nd, nd (controls 0 of 18). The variant GFNFDEYGIS / VIYADGKRNFYSDSVK / GYIGGFMEV [En_Gibbs] showed nd, nd, nd, nd, nd, 2.30 (controls 0 of 18). With GFQLDEVGIS / VIYADGIRTAYKSKVK / GGNGDSFDI [En_Gibbs] the result was nd, nd, 2.91, 1.85, 3.63, nd (mean 2.80; controls 0 of 18). For GFNLDEYGIS / VIYADGRRMSYTDSVK / GGLDKYLTD [En_Gibbs], the assay gave nd, nd, nd, nd, 3.12, nd (controls 1 of 18). The variant GFNLDEYGIS / VIYADGQRTQYANDVK / GGYGGIMLS [En_Gibbs] showed nd, nd, nd, 3.39, nd, nd (controls 0 of 18).

The variant GFDIEKYGIS / VIYADGQRSAYDSSVK / GHEAGNFHV [En_Gibbs] showed nd, nd, nd, nd, nd, nd (controls 0 of 18). With GFNIDEYGIS / VIYADGKRSMYADKVK / GVDGDFMMD [En_Gibbs] the result was nd, nd, nd, nd, nd, nd (controls 0 of 18). The variant GFDINEYGIS / VVYADGMRQAYIEQVK / GTLSGTFDA [En_Gibbs] showed nd, nd, nd, nd, nd, nd (controls 0 of 18). For GETLNDYGRS / VIYSDCRRTEYGDSVK / GRAALTFIS [Rand], the assay gave nd, nd, nd, nd, nd, nd (controls 0 of 18). For GFDLNEYGIS / VIYADGRRTAYSDSVK / GVNAGFFDS [En_HC], the assay gave nd, nd, nd, nd, nd, nd (controls 0 of 18).

The variant GFDLDSYGIS / VIYADGRRSAYHDSVK / GQNGSVSFV [En_Gibbs] gave nd, nd, nd, nd, nd, nd (controls 0 of 18). With GFSLEEYGIS / VIYADGSRRAYAQDVK / GGTAVGFVV [En_Gibbs] the result was nd, nd, nd, nd, nd, nd (controls 0 of 18).

Top 5 of the variants detected in all replicates, tightest first:

GFTLDEYGIS / VIYADGQRTFYADSVK / GNVAGTFDQ [En_HC]: -0.31, -1.01, -1.32, -1.24, 0.01, -0.88 (mean -0.79; controls 1 of 18).
GFDLNEYGIS / VIYADGVRTFYADSVK / GEVAGTFDL [En_Gen]: -0.63, -0.67, -1.33, -0.95, -0.54, -0.62 (mean -0.79; controls 0 of 18).
GFDLNEYGIS / VIYADGMRTFYTDSVK / GEFAGTFDK [En_HC]: -0.67, -1.38, -0.25, -0.32, -1.05, -0.98 (mean -0.78; controls 0 of 18).
GFDLNEYGIS / VIYADGMRTYYADSVK / GTNAGTFDI [En_Gen]: -0.79, -0.84, -0.65, -1.00, -0.49, -0.77 (mean -0.76; controls 0 of 18).
GFDLNEYGIS / VIYADGQRTAYADSVK / GNVAGTFDE [En_Gen]: -0.49, -0.84, -0.79, -0.73, -0.79, -0.66 (mean -0.72; controls 0 of 18).

The measurements come from Li et al. 2023 (doi:10.1038/s41467-023-39022-2) through the FLAb antibody collection.